Inhibition data for 100 molecules are collected here from PubChem BioAssay AID493160 (Sanford-Burnham Center for Chemical Genomics, 2011).

Chains of the proteins cited; added tags and fusions are not shown. Lines headed by an entry give the natural chain unless they say otherwise; changes in a name come on top.
UniProt Q2TB90: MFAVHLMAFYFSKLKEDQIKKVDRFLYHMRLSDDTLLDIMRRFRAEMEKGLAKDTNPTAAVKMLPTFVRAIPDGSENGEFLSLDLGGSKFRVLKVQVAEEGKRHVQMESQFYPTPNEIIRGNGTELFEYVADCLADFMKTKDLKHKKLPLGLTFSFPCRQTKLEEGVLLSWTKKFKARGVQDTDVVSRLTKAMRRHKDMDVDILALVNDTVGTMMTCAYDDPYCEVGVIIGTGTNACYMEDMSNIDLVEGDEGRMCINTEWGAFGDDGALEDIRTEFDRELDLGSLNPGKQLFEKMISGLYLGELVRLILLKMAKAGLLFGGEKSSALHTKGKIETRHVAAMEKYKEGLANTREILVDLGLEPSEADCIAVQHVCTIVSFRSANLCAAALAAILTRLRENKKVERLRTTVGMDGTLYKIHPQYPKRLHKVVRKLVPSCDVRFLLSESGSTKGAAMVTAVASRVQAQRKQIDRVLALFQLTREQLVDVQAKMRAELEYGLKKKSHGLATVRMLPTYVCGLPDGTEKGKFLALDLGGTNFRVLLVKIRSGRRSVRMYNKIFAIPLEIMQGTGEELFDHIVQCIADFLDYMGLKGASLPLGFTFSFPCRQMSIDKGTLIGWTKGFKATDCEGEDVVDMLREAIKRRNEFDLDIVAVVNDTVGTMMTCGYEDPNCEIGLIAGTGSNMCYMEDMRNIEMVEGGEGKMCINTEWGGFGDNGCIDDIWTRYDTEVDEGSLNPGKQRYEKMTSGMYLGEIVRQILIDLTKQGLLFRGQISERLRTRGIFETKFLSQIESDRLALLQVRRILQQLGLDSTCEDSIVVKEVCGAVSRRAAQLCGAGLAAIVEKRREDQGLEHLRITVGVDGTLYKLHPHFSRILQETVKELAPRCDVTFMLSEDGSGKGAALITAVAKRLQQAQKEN

The entries are a selection whose mix differs from that of the whole data set. Activity calls are given as the source filed them.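 The calls were made as follows: active = inhibition above about 35% when tested at 20 µM (limit read from the data); inactive = the rest.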

The target in the assay is Hexokinase HKDC1 (Homo sapiens) (UniProt Q2TB90). The assay is described as follows: HKDC1 hexokinase inhibitors, primary screen, biochemical, fluorescence, uHTS (AID 493160).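 Also: plate controls were DMSO wells with enzyme for no effect and DMSO wells lacking enzyme for full effect.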 Particulars: recombinant HKDC1, G6PDH/diaphorase resazurin coupled fluorescence; at 20 µM; hits give high values. For orientation: Alamar Blue is a resazurin reagent that responds to reducing activity.
Regarding `Cc1c2c(nc3ccccc13)SC(C(Cl)Cl)C2` (stereo not given), the inhibition was inactive: -8.1%.

Consider `O=C(OC1CN2CCC1CC2)C12CC3CC(CC(C3)C1)C2` (stereo not given), for which the inhibition is inactive: -6.63%.

Take `Cc1cc(=O)[nH]c(N[N+](=O)[O-])n1`: the inhibition was inactive: -2.43%.

Take `O=P1(N(CCCl)CCCl)OCCCN1CCCl` (stereo not given): the inhibition is inactive: -9.98%.

Regarding `O=P1(N(CCCl)CCCl)Nc2ccccc2N1`, the inhibition was inactive: -2.44%.

Consider `COc1ccc2nc(NP(=O)(c3ccccc3)c3ccccc3)sc2c1`, for which the inhibition was inactive: -2.05%.

`COc1cc(I)ccc1[As](=O)(O)O`: the inhibition was inactive: -2.16%.

For `O=[N+]([O-])c1cc(Oc2ccc([N+](=O)[O-])cc2C(F)(F)F)cc([N+](=O)[O-])c1`, the inhibition was inactive: 10.3%.

As to `COc1ccc(N/C(=N/P(=O)(N2CCOCC2)N2CCOCC2)N2CCOCC2)cc1`, the inhibition is inactive: -8.85%.

Take `O=[As](O)(c1ccc(O)cc1)c1ccccc1O`: the inhibition was inactive: 18.6%.

For the molecule `C[As](=O)(O)c1cccc(C(=O)O)c1`, the inhibition was inactive: -2.76%.

As to `O=[N+]([O-])c1ccc(-c2cc([N+](=O)[O-])c(O)c([N+](=O)[O-])c2)cc1`, the inhibition is inactive: 22.3%.

With `COc1cc(C(=O)NCC2(N3CCOCC3)CCCCC2)ccc1OCC(C)C`, the inhibition was inactive: 0.2%.

Consider `Cc1ccc(OP(=O)(Nc2ccc([N+](=O)[O-])cn2)Oc2ccc(C)cc2)cc1`, for which the inhibition was inactive: 0.4%.

Turning to `Cc1ccc2nc3c(c(C)c2c1)CC(C(Cl)Cl)S3` (stereo not given), the inhibition is inactive: 8.67%.

`ClCCSc1nnc(-c2cccnc2)o1`: the inhibition is inactive: -0.23%.

In the case of `COC(=O)C1(C)COP(=O)(N2CCCCCC2)OC1` (stereo not given), the inhibition is inactive: -0.23%.

Regarding `CC(C)c1ccc(OP(=O)(Nc2ccccn2)Oc2ccccc2F)cc1` (stereo not given), the inhibition is inactive: 4.39%.

In the case of `CC(C)NC(=O)NP(=O)(Oc1ccccc1)Oc1ccccc1`, the inhibition is inactive: -6.54%.

`CCN(CC)C(=S)SC(NC=O)C(Cl)(Cl)Cl` (stereo not given): the inhibition was inactive: -23.2%.

As for `O=C(OC1CN2CCC1CC2)c1cccc2[nH]cnc12` (stereo not given), the inhibition is inactive: -4.52%.

In the case of `O=[N+]([O-])c1cc([N+](=O)[O-])c(-c2ccn[nH]2)s1`, the inhibition is inactive: 4.21%.

Regarding `CCOC(=O)Nc1ccc([As](=O)(O)O)c(O)c1`, the inhibition is inactive: 6.6%.

As to `CC1CCNP(=O)(N(CCCl)CCCl)O1` (stereo not given), the inhibition was inactive: -4.14%.

In the case of `CCCCOc1ccc(C(=O)NCC2(N3CCCCC3)CCCCC2)cc1OC`, the inhibition is inactive: -2.67%.

With `Cc1cc(SC(NC(=O)c2ccccc2)C(Cl)(Cl)Cl)nc(C(C)C)n1` (stereo not given), the inhibition was inactive: -3.29%.

As for `CCOC(=O)Nc1cccc([As](=O)(O)O)c1`, the inhibition is inactive: -1.76%.

With `O=P(Nc1ccccn1)(c1cccc2ccccc12)c1cccc2ccccc12`, the inhibition was inactive: -1.44%.

On to `Cc1cc(SC(NC=O)C(Cl)(Cl)Cl)ncn1` (stereo not given), for which the inhibition was inactive: 3.73%.

Take `O=[N+]([O-])c1ccc(Nc2ccc(Oc3ccc([N+](=O)[O-])cc3[N+](=O)[O-])cc2)c([N+](=O)[O-])c1`: the inhibition is inactive: -0.6%.

As for `COP1(=S)c2c(C)nn(CCC#N)c2N=C(c2ccc(F)cc2)N1C` (stereo not given), the inhibition was inactive: -0.41%.

Consider `O=C(COc1ccccc1)OC1CN2CCC1CC2` (stereo not given), for which the inhibition was inactive: -2.49%.

In the case of `O=C(Nc1ccncc1[N+](=O)[O-])c1ccc([N+](=O)[O-])cc1[N+](=O)[O-]`, the inhibition is inactive: 6.24%.

Regarding `O=C(OC1CN2CCC1CC2)c1cccc([N+](=O)[O-])c1` (stereo not given), the inhibition was inactive: -7.09%.

In the case of `CCOC(=O)c1ccc(NC(=O)C(C)(CCl)SC)cc1` (stereo not given), the inhibition was inactive: -0.53%.

With `CCC(C)N(CC(C)C)C(=S)SC(NC(C)=O)C(Cl)(Cl)Cl` (stereo not given), the inhibition is inactive: -25.6%.

For `O=P1(Nc2ccccn2)COc2ccccc2OC1`, the inhibition is inactive: -0.89%.

Take `CCC1=CC2Cc3nc4ccc(Cl)cc4c(N)c3C(C1)C2` (stereo not given): the inhibition was inactive: 13.3%.

In the case of `CCOP(=O)(NC(=NC(C)c1ccccc1)NC(C)c1ccccc1)OCC` (stereo not given), the inhibition was inactive: -4.51%.

As to `CCOP(=O)(Nc1ccc(C)cn1)OCC`, the inhibition was inactive: 1.61%.

Turning to `CN(CCCl)Cc1cc(Cl)c(NC2=NCCN2)c(Cl)c1`, the inhibition was inactive: -4.22%.

Turning to `Clc1n[nH]nc1-c1nn[nH][15n]1`, the inhibition is inactive: -1.18%.

Regarding `CC(C)(C)C(=O)NC(Sc1ncccn1)C(Cl)(Cl)Cl` (stereo not given), the inhibition was inactive: -4.07%.

For `COc1ccccc1CNC(=O)COC(=O)C(O)(c1ccccc1)c1ccccc1`, the inhibition is inactive: 1.96%.

Turning to `CC(C)/C=N\N=C(\N)N[N+](=O)[O-]`, the inhibition was inactive: -0.17%.

As for `CN(C(=O)Cc1ccc(Cl)c(Cl)c1)[C@@H]1CCCC[C@H]1N1CCCC1`, the inhibition is inactive: -3.57%.

For `CC1(CBr)Cn2c(nc3ccccc3c2=O)S1` (stereo not given), the inhibition is inactive: -0.93%.

Turning to `Cc1nn(-c2ccccc2)c2c1P(=O)(N1CCOCC1)N(C)C(c1ccccc1)=N2` (stereo not given), the inhibition is inactive: 12.1%.

For the molecule `CC1CCC(C(C)C)C(OP(=O)(Nc2ccccn2)c2ccccc2)C1` (stereo not given), the inhibition is inactive: 4.01%.

Consider `Cc1ccc(C(=O)OC2CN3CCC2CC3)cc1` (stereo not given), for which the inhibition is inactive: -5.46%.

For `CN(C)C1(CNC(=O)c2ccc(S(C)(=O)=O)cc2)CCCCC1`, the inhibition was inactive: -2.98%.

For `O=C(/C=C/c1ccccc1)OC1CN2CCC1CC2` (stereo not given), the inhibition was inactive: -7.39%.

Consider `CCCC1OP(=O)(Nc2ccccc2)OCC1CC` (stereo not given), for which the inhibition is inactive: -3.65%.

In the case of `O=P1(Nc2ncccn2)COc2ccccc2OC1`, the inhibition is inactive: -2.93%.

As for `Nc1cccc([As](=O)(O)c2ccccc2)c1`, the inhibition is inactive: -4.7%.

As for `Cc1ccc(OCC(=O)OC2CN3CCC2CC3)cc1` (stereo not given), the inhibition was inactive: 2.33%.

For the molecule `O=[As](O)(c1cccs1)c1cccs1`, the inhibition was inactive: 3.09%.

`O=P1(Nc2ccc(Br)cn2)COc2ccccc2OC1`: the inhibition was inactive: -1.75%.

`NS(=O)(=O)c1cccc(NC(=O)COC(=O)C(O)(c2ccccc2)c2ccccc2)c1`: the inhibition is inactive: 1.46%.

For the molecule `CCOP1(=S)c2c(C)nn(CCC#N)c2N=C(c2ccccc2F)N1C` (stereo not given), the inhibition was inactive: -8.18%.

As to `O=P(Nc1nccs1)(Oc1ccccc1)Oc1ccccc1`, the inhibition was inactive: -0.01%.

For the molecule `O=P(Nc1nccs1)(c1ccccc1)c1nc2ccccc2s1` (stereo not given), the inhibition is inactive: 1.45%.

Turning to `CS(=O)(=O)c1cc([N+](=O)[O-])c2no[n+]([O-])c2c1`, the inhibition was inactive: 3.01%.

`Nc1ccccc1[As](=O)(O)c1ccccc1`: the inhibition was inactive: 12.6%.

Consider `O=C(O)COc1ccc([As](=O)(O)O)cc1[N+](=O)[O-]`, for which the inhibition is inactive: -4.15%.

On to `NC(=O)Nc1ccc([As](=O)(O)O)cc1`, for which the inhibition is inactive: 0.92%.

`N#CCCN(C(=O)COC(=O)C(O)(c1ccccc1)c1ccccc1)c1ccc(F)cc1`: the inhibition is inactive: -3.34%.

As to `CCOP1(=S)c2c(C)nn(CCC#N)c2N=C(c2ccc(F)cc2)N1C` (stereo not given), the inhibition was inactive: -9.94%.

Turning to `CN(C(=O)Cc1ccccc1)[C@@H]1CC[C@]2(CCCO2)C[C@H]1N1CCCC1`, the inhibition is inactive: -7.79%.

As for `O=[N+]([O-])c1ccc2c(c1)nnn2O`, the inhibition is inactive: -9.27%.

On to `CN(C)C(=O)c1cc([N+](=O)[O-])cc2c1-c1c(cc([N+](=O)[O-])cc1[N+](=O)[O-])C2=O`, for which the inhibition is active: 47.6%.

`CN(C(=O)Cc1ccc(Cl)c(Cl)c1)[C@H]1CC[C@@]2(CCCO2)C[C@@H]1N1CCCC1`: the inhibition is inactive: -4.68%.

In the case of `O=C(OC1CN2CCC1CC2)c1ccc(Cl)cc1` (stereo not given), the inhibition was inactive: -9.4%.

As to `O=[As](O)(O)c1cccnc1`, the inhibition was inactive: -2.85%.

On to `COc1cc(C(=O)NCC2(N3CCOCC3)CCCCC2)cc(Cl)c1OC(C)C`, for which the inhibition is inactive: -8.81%.

Regarding `CS(=O)(=O)c1ccc(Cl)c(NC(=O)COC(=O)C(O)(c2ccccc2)c2ccccc2)c1`, the inhibition is inactive: 0%.

On to `Cc1cccc(OCC(=O)OC2CN3CCC2CC3)c1` (stereo not given), for which the inhibition was inactive: 5.33%.

Consider `O=[As](O)(c1cccc(O)c1)c1cccc(O)c1`, for which the inhibition is inactive: -1.97%.

With `Cc1ccc(NCCc2c([N+](=O)[O-])cc([N+](=O)[O-])cc2[N+](=O)[O-])cc1`, the inhibition was inactive: 8.96%.

As to `Nc1cccc2c([As](=O)(O)O)cccc12`, the inhibition was inactive: 14.9%.

In the case of `CCCOP(=S)(Nc1nc(N)cc(=O)[nH]1)OCCC`, the inhibition is inactive: 3.2%.

As to `COc1cc(C2NCCC3(OCCO3)C2(C)C)cc(OC)c1OC` (stereo not given), the inhibition was inactive: 3.3%.

On to `CCOP(=O)(Nc1cccc2ccccc12)OCC`, for which the inhibition was inactive: -6.7%.

With `O=P1(Nc2nc3ccc(Cl)cc3s2)COc2ccccc2O1` (stereo not given), the inhibition was inactive: -2.53%.

As for `CCOc1ccc(C2=NCC(CBr)S2)cc1` (stereo not given), the inhibition was inactive: -13.5%.

Take `CC(C)(C)C(=O)NC(Sc1ccccc1)C(Cl)(Cl)Cl` (stereo not given): the inhibition is inactive: -0.93%.

On to `CCc1cc(O)c([N+](=O)[O-])c(C)c1[N+](=O)[O-]`, for which the inhibition was inactive: 2.11%.

As to `Cc1ccccc1CN(C)C(=O)COC(=O)C(O)(c1ccccc1)c1ccccc1`, the inhibition was inactive: -3.83%.

Consider `C[C@H]1OP(=O)(Oc2ccccc2)C[C@@H]2O[C@@H]21` (stereo not given in full), for which the inhibition is inactive: -0.83%.

For `C[C@@H]1C=CCP(=O)(Oc2ccccc2)O1` (stereo not given in full), the inhibition was inactive: 23%.

`CC(=O)c1ccc(N2CC2c2ccncc2)cc1` (stereo not given): the inhibition was inactive: -2.6%.

For the molecule `N#C/C(=C\c1ccc(N(CCBr)CCBr)cc1)C(N)=O`, the inhibition was inactive: 5.42%.

Consider `COC(=O)C1(C)COP(=O)(NCc2ccccc2)OC1` (stereo not given), for which the inhibition was inactive: -7.94%.

In the case of `CC(=O)Nc1ccc([As](=O)(O)O)c(O)c1`, the inhibition is inactive: -2.03%.

For `CC(=O)Nc1ccc(Oc2c([N+](=O)[O-])cc([N+](=O)[O-])cc2[N+](=O)[O-])cc1`, the inhibition is inactive: -4.01%.

As to `c1ccc(-c2nn[nH]n2)c(-c2nn[nH]n2)c1`, the inhibition was inactive: -4.2%.

As for `Cc1ccc(NP(=O)(Oc2cccc(C)c2)Oc2cccc(C)c2)nc1`, the inhibition was inactive: 1.71%.

Turning to `CCNC(=S)/N=C(\N)N[N+](=O)[O-]`, the inhibition is inactive: -10.8%.

As to `O=C(NC1CCS(=O)(=O)C1)NP(=S)(Oc1ccccc1)Oc1ccccc1` (stereo not given), the inhibition is inactive: -8.01%.

In the case of `O=P1(N(CCCl)CCCl)OCCC2CCCCN21` (stereo not given), the inhibition was inactive: 0.64%.

By inhibition is commonly meant the drop in the measured response relative to a control, in per cent.
